Experimental findings from patent publication US8703768B2, “Nitrogen containing heteroaryl compounds” (Hoffmann-La Roche Inc., priority 2010, dated 2014) are described below.

Chains of the proteins cited; added tags and fusions are not shown. A line that says so, or that is headed by a name, gives the form on record, which may keep a tag or linker. Residues count along the entry.
UniProt Q9Y233, 290-1055 with tags or gaps limits assumed: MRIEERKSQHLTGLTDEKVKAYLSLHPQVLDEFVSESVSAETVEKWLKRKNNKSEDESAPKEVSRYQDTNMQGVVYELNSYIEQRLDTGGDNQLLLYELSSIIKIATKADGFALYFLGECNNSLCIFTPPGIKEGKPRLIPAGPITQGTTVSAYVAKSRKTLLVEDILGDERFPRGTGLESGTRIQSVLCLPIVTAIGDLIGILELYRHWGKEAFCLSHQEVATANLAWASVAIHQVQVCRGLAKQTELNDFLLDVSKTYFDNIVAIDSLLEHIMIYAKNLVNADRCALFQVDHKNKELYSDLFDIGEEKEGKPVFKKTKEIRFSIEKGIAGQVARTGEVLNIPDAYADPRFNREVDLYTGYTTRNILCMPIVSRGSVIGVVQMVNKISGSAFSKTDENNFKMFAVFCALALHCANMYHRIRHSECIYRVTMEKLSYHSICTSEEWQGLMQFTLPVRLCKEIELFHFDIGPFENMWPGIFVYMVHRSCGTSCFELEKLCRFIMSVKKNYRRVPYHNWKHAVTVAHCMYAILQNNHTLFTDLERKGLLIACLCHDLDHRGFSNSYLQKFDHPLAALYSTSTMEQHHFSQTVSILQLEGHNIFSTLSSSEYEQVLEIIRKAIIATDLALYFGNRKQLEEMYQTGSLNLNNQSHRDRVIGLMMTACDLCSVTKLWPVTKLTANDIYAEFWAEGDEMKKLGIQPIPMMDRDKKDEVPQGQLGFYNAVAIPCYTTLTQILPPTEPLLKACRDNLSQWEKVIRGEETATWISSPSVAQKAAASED

For this test, the target named is human PDE10A (Homo sapiens (Human), UniProt Q9Y233). Briefly: human PDE10A full length Scintillation Proximity Assay (SPA). It counts as biochemical. The conditions noted are these: read-out: PDE10A inhibition IC50; 50 nM cGMP and 50 nM [3H]-cGMP, 20 minutes at room temperature.

Regarding `CNC(=O)c1c(NC(=O)c2nc(C(C)(C)C)ncc2Nc2cncnc2)cnn1C`, the IC50 (as a rule, the concentration that inhibits the measured activity by half) amounted to 2.5 nM. On to `CNC(=O)c1c(NC(=O)c2nc(C(C)C)ncc2Nc2cncnc2)cnn1C`, for which the IC50 is 12.8 nM.
